Binding of CDR-mutated scFvs to a peptide of the spike HR2 region

Target peptide (SARS-CoV-2 spike, HR2 region): PDVDLGDISGINAS

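The starting antibody came from a phage panning campaign against this peptide. In library AAYL51, one, two or three CDR residues were substituted; doubles and triples were drawn at random. Affinity was read by AlphaSeq, a pooled yeast mating assay with surface-displayed partners. After mating in shaken culture at 30 °C for 16 h, diploids were selected and their barcode pairs sequenced. The ratio of observed to expected reads was calibrated, replicate by replicate, on BCL2-family standards whose Kd was known from biolayer interferometry. There are three technical replicates.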

The variants keep the light chain, the linker and the frameworks of Ab-91 (scFv order VL, a (GGGGS)3 linker, VH).
VL: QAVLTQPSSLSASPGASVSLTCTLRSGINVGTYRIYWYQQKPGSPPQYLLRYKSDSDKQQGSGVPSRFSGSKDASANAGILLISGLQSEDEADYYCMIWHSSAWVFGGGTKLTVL
VH: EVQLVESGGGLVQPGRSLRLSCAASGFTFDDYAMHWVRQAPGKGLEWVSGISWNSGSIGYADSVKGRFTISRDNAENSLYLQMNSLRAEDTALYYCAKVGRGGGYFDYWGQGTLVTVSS

Variants are written as CDR1, CDR2 and CDR3 of the heavy chain (limits as in the source). Parent: GFTFDDYAMH, GISWNSGSIGYADSVK, VGRGGGYFDY. Kd is apparent (estimated from mating counts) and averaged on the log scale over replicates with a signal. Smaller is tighter. "nd" means that the variant was in the library but no mating with the target was seen in any replicate; the authors take this as a sign of poor binding, and no number exists. Three control strains display no target. For library AAYL51, 21% of the pairings with them gave a signal, with a median of 34 µM and one signal in twenty below 1.8 µM, so weak values seen in few replicates may be background.

CDR-H1,CDR-H2,CDR-H3,Kd,seen in
GFTFDDYAPH,GISWNSGSIGYADSMK,VGRGGMYFDY,910 µM,1/3
GFTFDDYAFH,GISWYSGSIGYADSVK,VGRGGGYFLY,16 µM,1/3
GFTLDDYAMH,GISWFSGSIGYADSVK,VGRGQGYFDY,nd,0/3
GFTFDDYAWH,GISWNSGFIVYADSVK,VGRGGGYFDY,nd,0/3
GFTFDDYAMH,GISWWSGSIGMADSVK,VGRGGGYFDY,110 µM,2/3
GFTFDDYAMH,GISWNKGSIGYADSVY,VGRGGGYFDY,16 µM,3/3
GFCFDDYAMH,GISWNSGSIGYADSVK,VGRLDGYFDY,150 µM,1/3
SFTFDDYAMH,GISWNSGSIGYASSVK,VGRGGTYFDY,nd,0/3
GFMFDDYAMH,GISWNSGSIGYADSVK,VGRGGGYGDY,nd,0/3
GFTFDDYAMH,NISWNSGSIGGADSVK,VGRHGGYFDY,nd,0/3
GFTFDDYGMH,GISWNSGSIGYADSVK,DGRGGGIFDY,110 µM,2/3
GFTFDDYAMH,GRSWNSGSIGYMDSVK,VGRGRGYFDY,69 µM,2/3
GFTFDDYAMH,GISGNSGSIIYADSVQ,VGRGGGYFDY,nd,0/3
GFTFDDYAMH,GISWNMGSIGYAGSVD,VGRGGGYFDY,1.9 µM,3/3
GFTFDDYAMH,GIHWNSGSIGYAFSVK,VGRGGGYFDV,17 µM,2/3
GFTFDDYAMP,GISWNSGSIGYAPSVK,VGRWGGYFDY,nd,0/3
GFTFDDKAMH,GISWNSGSIGYIDEVK,VGRGGGYFDY,nd,0/3
GFHFDDYAMH,GISWNSGSIGYADSVK,VGRIGEYFDY,1.2 µM,3/3
GFTFDGYAMH,GISWNSGCIGYADSVK,VGRYGGYFDY,nd,0/3
GFTFDDYHMH,GVSWNSGSIGYADTVK,VGRGGGYFDY,740 µM,1/3
GFTFDDYAMH,GISWNSGSIGNADSHK,VGRGGGYFDD,nd,0/3
GFTFDDYAMH,GISWNSGSYGYADSCK,VMRGGGYFDY,nd,0/3
GFTFDFEAMH,GISWNSGSIGYADSVK,VGRGGGYFDY,93 nM,3/3
GRTFDDYKMH,GISWNSGSIGYADFVK,VGRGGGYFDY,310 µM,2/3
GFTFDDYADH,EISWNSGSIGYADSHK,VGRGGGYFDY,nd,0/3
GFTFDDYAMH,GINWNSFSIGYADSVK,VGRGGGLFDY,47 µM,3/3
IFTFFDYAMH,GISWNSGSIGYADSVK,VGRGGGYVDY,nd,0/3
MFTFDDYAMH,GIGWNSTSIGYADSVK,VGRGGGYFDY,58 µM,2/3
GFTFDCYAMH,GICWNSGSIGYADSVK,VGRGGGYFDY,nd,0/3
GFTMDDYAMH,GISWNSGSIGYADQVK,VGRGQGYFDY,23 µM,2/3
GFTFDDYAMH,GIQWNSGSIGYADSVK,VLRGGGYFDQ,nd,0/3
GFTFDDYAMH,GISWNSGSIGPADSFK,VGRGGFYFDY,nd,0/3
GFTVDDYAMH,GISWNSGSIGYADSVK,VGRGGPNFDY,47 µM,1/3
GFTIDDYAMH,GISWNSGSIMRADSVK,VGRGGGYFDY,nd,0/3
GFTFDDYAMH,GISWNSGSIRYADSVK,VGSGGGYFDY,44 µM,1/3
GFTFDDYAMH,GISWNSISRGYADSYK,VGRGGGYFDY,20 µM,1/3
GFTFHDYAMH,GKSWNSGDIGYADSVK,VGRGGGYFDY,nd,0/3
GFTFDDYNMH,GISWNSGSLGYADSVK,VGRGGGYMDY,nd,0/3
GFTFDDYAMH,GISYNSGSIGYADRVS,VGRGGGYFDY,250 nM,3/3
GFTFGDYAMH,GISWNSGSCGYADSVK,VGRGGGYFDY,20 nM,3/3
GFTFDDYAVV,GIKWNSGSIGYADSVK,VGRGGGYFDY,25 µM,1/3
GFTFDDYAMH,GILWNSGSIGPADSRK,VGRGGGYFDY,nd,0/3
GFTTDDLAMH,GISWNSGSIGYADEVK,VGRGGGYFDY,nd,0/3
GFTQDDYAMH,GISWNSGSIGYAYSVK,VGRCGGYFDY,17 µM,1/3
GFTIDDYAMH,GISVNSGSIGYADSVK,VGRGTGYFDY,nd,0/3
GFTFDDYAMH,SIIWNSGSIKYADSVK,VGRGGGYFDY,2.2 µM,1/3
GPTFDDYAMH,GISWNSGSIGYKDSVK,VGRGGGYFDY,200 µM,1/3
GFTFDDYAPH,GISWNSGSILYADSVK,VGRGGGYLDY,nd,0/3

Again, the first 8 entries without any signal:

CDR-H1,CDR-H2,CDR-H3,Kd,seen in
GFTLDDYAMH,GISWFSGSIGYADSVK,VGRGQGYFDY,nd,0/3
GFTFDDYAWH,GISWNSGFIVYADSVK,VGRGGGYFDY,nd,0/3
SFTFDDYAMH,GISWNSGSIGYASSVK,VGRGGTYFDY,nd,0/3
GFMFDDYAMH,GISWNSGSIGYADSVK,VGRGGGYGDY,nd,0/3
GFTFDDYAMH,NISWNSGSIGGADSVK,VGRHGGYFDY,nd,0/3
GFTFDDYAMH,GISGNSGSIIYADSVQ,VGRGGGYFDY,nd,0/3
GFTFDDYAMP,GISWNSGSIGYAPSVK,VGRWGGYFDY,nd,0/3
GFTFDDKAMH,GISWNSGSIGYIDEVK,VGRGGGYFDY,nd,0/3

For reference, the parent read 72 nM as the reference entry and 7.5 nM as a member of this library.

From the AlphaSeq antibody data of Engelhart et al. 2022 (doi:10.1038/s41597-022-01779-4), copy in the FLAb collection.